Values quoted from earlier work as cited in PubChem BioAssay AID493017 (Abbott Labs, 2011).
This is one part of the list. Calls of active or inactive are those of the source. The rule behind the calls is not given here.

Experiments:
Assay in all cases: PubChem AID 493017
[1] = biological target: PTGS2; details: WOMBAT literature affinities, multiple human targets; COX-2; gene PTGS2; NCBI gene 5743
[2] = biological target: EGFR; details: WOMBAT literature affinities, multiple human targets; EGFR; gene EGFR; NCBI gene 1956
[3] = biological target: FNTA; details: WOMBAT literature affinities, multiple human targets; FTase; gene FNTA; NCBI gene 2339
[4] = biological target: DHFR; details: WOMBAT literature affinities, multiple human targets, DHFR, gene DHFR, NCBI gene 1719
[5] = biological target: HTR1A; details: WOMBAT literature affinities, multiple human targets; binding affinity Ki; 5-HT1A; gene HTR1A; NCBI gene 3350
[6] = biological target: MMP1; details: WOMBAT literature affinities, multiple human targets; MMP-1; gene MMP1; NCBI gene 4312
[7] = biological target: F2; details: WOMBAT literature affinities, multiple human targets; binding affinity Ki; thrombin; gene F2; NCBI gene 2147
[8] = biological target: GRM2; details: WOMBAT literature affinities, multiple human targets; mGluR2; gene GRM2; NCBI gene 2912
[9] = biological target: CNR1; details: WOMBAT literature affinities, multiple human targets; binding affinity Ki; CB1; gene CNR1; NCBI gene 1268
[10] = biological target: GABRA1; details: WOMBAT literature affinities, multiple human targets; GABA-A; gene GABRA1; NCBI gene 2554
[11] = biological target: F10; details: WOMBAT literature affinities, multiple human targets; binding affinity Ki; fXa; gene F10; NCBI gene 2159
[12] = biological target: PDGFRA; details: WOMBAT literature affinities, multiple human targets; PDGFR; gene PDGFRA; NCBI gene 5156
[13] = biological target: SIGMAR1; details: WOMBAT literature affinities, multiple human targets; sigma; gene SIGMAR1; NCBI gene 10280
[14] = biological target: HRH3; details: WOMBAT literature affinities, multiple human targets; binding affinity Ki; H3; gene HRH3; NCBI gene 11255
[15] = biological target: KCNJ5; details: WOMBAT literature affinities, multiple human targets; K(+) channel; gene KCNJ5; NCBI gene 3762
[16] = biological target: MMP13; details: WOMBAT literature affinities, multiple human targets; MMP-13; gene MMP13; NCBI gene 4322

Question: For `Cn1ccc(-c2ccc(F)cc2)c1-c1ccc(S(C)(=O)=O)cc1`, which IC50 [1] is on record?
Answer: 20000 nM

Question: With `Clc1cccc(Nc2ncnc3ccccc23)c1` as the compound, how does the IC50 [2] read?
Answer: 23 nM

Question: With `CC1(C)OC(=O)C(Nc2ccccc2)=C1c1ccc(S(C)(=O)=O)cc1` as the compound, how does the IC50 [1] read?
Answer: 500 nM

Question: Which IC50 [1] does the source give for `Cn1c(Cl)c(Cl)c(-c2ccc(F)cc2)c1-c1ccc(S(C)(=O)=O)cc1` here?
Answer: 25100 nM

Question: For `CSCCC(NC(=O)C1CCC2CCCC(NC(=O)C(CS)NC(=O)OCC3c4ccccc4-c4ccccc43)C(=O)N21)C(=O)O` (configuration not stated), which IC50 [3] is on record?
Answer: 7000 nM

Question: For `CC1(C)N=C(N)N=C(N)N1c1ccc(C(=O)Nc2ccc(S(=O)(=O)F)cc2)cc1`, which IC50 [4] is on record?
Answer: 20900 nM

Question: Which Ki [5] does the source give for `O=C1CC(=C(c2ccccc2)c2ccccc2)C(=O)N1CCCCN1CCN(c2ccccc2)CC1` here?
Answer: 125 nM

Question: For `COc1ccc(S(=O)(=O)N2CCCS(=O)(=O)C(C)(C)C2C(=O)NO)cc1` (configuration not stated), which IC50 [6] is on record?
Answer: 1.9 nM

Question: For `COc1ccc2ccc(S(=O)(=O)N(C)C3CCN(Cc4cccc(C(=N)N)c4)C3=O)cc2c1` (configuration not stated), which Ki [7] is on record?
Answer: 1050 nM

Question: Which IC50 [6] does the source give for `CC1(C)SCCCN(S(=O)(=O)c2ccc(Br)cc2)C1C(=O)NO` (configuration not stated) here?
Answer: 0.7 nM

Question: For `NC(C(=O)O)C1C(C(=O)O)C1c1ccccc1` (configuration not stated), which IC50 [8] is on record?
Answer: 9900 nM

Question: For `COc1cccc(Cc2cnc(N)nc2N)c1`, which outcome [4] is on record?
Answer: active

Question: And the Ki ([4]; binding affinity Ki)?
Answer: 300 nM

Question: For `CCCCCC=CCC=CCC=CCC=CCCCC(N)=O`, which Ki [9] is on record?
Answer: 9600 nM

Question: For `CCOC(=O)c1cc2c(cn1)C(=O)c1ccccc1-2`, which IC50 [10] is on record?
Answer: 25700 nM

Question: For `Nc1cc2ccnc(N)c2cc1CN1CCC(NS(=O)(=O)c2cc3ncccc3s2)C1=O` (configuration not stated), which Ki [11] is on record?
Answer: 6000 nM

Question: For `CC1(C)N=C(N)N=C(N)N1c1cccc(C(=O)Nc2ccc(S(=O)(=O)F)cc2)c1`, which IC50 [4] is on record?
Answer: 1100 nM

Question: With `CCCOC1CCC(CS)(C(=O)NC(Cc2ccccc2)C(=O)NC)CC1` (configuration not stated) as the compound, how does the IC50 [6] read?
Answer: 6030 nM

Question: With `COC1=C(c2ccc(S(C)(=O)=O)cc2)C(C)(C)OC1=O` as the compound, how does the IC50 [1] read?
Answer: 33000 nM

Question: With `Cn1c2ccccc2c2c1cnc1c3ccccc3n(C)c12` as the compound, how does the IC50 [10] read?
Answer: 1950 nM

Question: With `CC1(C)N=C(N)N=C(N)N1c1cccc(CCCCc2ccccc2)c1` as the compound, how does the IC50 [4] read?
Answer: 4.47 nM

Question: With `CC1(C)N=C(N)N=C(N)N1c1cccc(OCC(=O)Nc2ccccc2)c1` as the compound, how does the IC50 [4] read?
Answer: 141 nM

Question: For `CC(C)OC1=C(c2ccc(S(C)(=O)=O)cc2)C(C)(C)OC1=O`, which IC50 [1] is on record?
Answer: 300 nM

Question: For `COc1ccc2c(c1)ncn2-c1ccccc1`, which IC50 [12] is on record?
Answer: 430 nM

Question: For `CCCN(CCC)CCc1ccc(OC)c(OCCc2ccccc2)c1`, which IC50 [13] is on record?
Answer: 1.3 nM

Question: For `COc1ccc(-c2ccccc2-c2ccc(S(C)(=O)=O)cc2)cc1Cl`, which IC50 [1] is on record?
Answer: 10000 nM

Question: With `CS(=O)(=O)c1ccc(C2=C(c3ccc(F)cc3)C(=O)OC2)cc1` as the compound, how does the IC50 [1] read?
Answer: 600 nM

Question: For `COc1cc(O)c2c(=O)c(-c3cccc(Cl)c3)cn(CCc3ccccc3)c2c1`, which IC50 [2] is on record?
Answer: 4000 nM

Question: With `CC1(C)N=C(N)N=C(N)N1c1cc(Cl)ccc1Cl` as the compound, how does the IC50 [4] read?
Answer: 372000 nM

Question: For `CS(=O)(=O)c1ccc(-c2cc(C(F)(F)F)cnc2OCC2(O)CCCC2)cc1`, which IC50 [1] is on record?
Answer: 1400 nM

Question: With `O=S(=O)(Cc1ccccc1)NCCc1cnc[nH]1` as the compound, how does the Ki [14] read?
Answer: 1860 nM

Question: With `CC1(C)OC(=O)C(OC2CC2)=C1c1ccc(S(C)(=O)=O)cc1` as the compound, how does the IC50 [1] read?
Answer: 5200 nM

Question: Which IC50 [15] does the source give for `O=c1[nH]c2cc(C(F)(F)F)ccc2n1-c1cc(C(F)(F)F)ccc1O` here?
Answer: 6310 nM

Question: For `CC1(C)OC(=O)C(Oc2ccccc2)=C1c1ccc(S(C)(=O)=O)cc1`, which IC50 [1] is on record?
Answer: 20 nM

Question: With `CCCC(N)Cc1ccc(OC)c(OCCc2ccccc2)c1` (configuration not stated) as the compound, how does the IC50 [13] read?
Answer: 330 nM

Question: Which IC50 [4] does the source give for `Cc1ccccc1N1C(N)=NC(N)=NC1(C)C` here?
Answer: 100000 nM

Question: With `CC1(C)N=C(N)N=C(N)N1c1cccc(OCC(=O)N2CCOCC2)c1` as the compound, how does the IC50 [4] read?
Answer: 14100 nM

Question: Which Ki [9] does the source give for `Cc1c(C(=O)c2ccccc2F)c2ccccc2n1C(C)CN1CCOCC1` (configuration not stated) here?
Answer: 891 nM

Question: With `CCc1nccc2c1[nH]c1ccccc12` as the compound, how does the IC50 [10] read?
Answer: 251000 nM

Question: Which IC50 [6] does the source give for `COc1ccc(S(=O)(=O)N2CCCCC2C(=O)NO)cc1` (configuration not stated) here?
Answer: 23 nM

Question: Which IC50 [16] does the source give for `O=S(=O)(c1ccc(Oc2ccccc2)cc1)C1CCCC(S)C1` (configuration not stated) here?
Answer: 1 nM

Question: For `CC1(C)N=C(N)N=C(N)N1c1ccc(-c2ccccc2)cc1`, which IC50 [4] is on record?
Answer: 20000 nM
